The text below walks through data of BindingDB's records for 33422983, “Recent findings leading to the discovery of selective dopamine D4 receptor ligands for the treatment of widespread diseases” (2021).

Amino acid sequences for entries named in this document (tags omitted).
UniProt P14416, whole entry, looked up: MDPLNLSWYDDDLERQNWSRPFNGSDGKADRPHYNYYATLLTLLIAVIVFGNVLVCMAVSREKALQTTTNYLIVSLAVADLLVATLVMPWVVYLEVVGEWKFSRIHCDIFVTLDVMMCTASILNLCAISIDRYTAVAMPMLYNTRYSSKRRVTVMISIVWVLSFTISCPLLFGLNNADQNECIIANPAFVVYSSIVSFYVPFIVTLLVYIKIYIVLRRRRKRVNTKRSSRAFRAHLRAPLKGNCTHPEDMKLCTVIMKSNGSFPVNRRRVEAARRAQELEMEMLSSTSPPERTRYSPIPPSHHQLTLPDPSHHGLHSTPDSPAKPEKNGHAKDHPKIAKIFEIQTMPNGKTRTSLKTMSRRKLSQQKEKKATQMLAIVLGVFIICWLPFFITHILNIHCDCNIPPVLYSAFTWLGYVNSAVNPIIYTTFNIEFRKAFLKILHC
UniProt P35462, whole entry, looked up: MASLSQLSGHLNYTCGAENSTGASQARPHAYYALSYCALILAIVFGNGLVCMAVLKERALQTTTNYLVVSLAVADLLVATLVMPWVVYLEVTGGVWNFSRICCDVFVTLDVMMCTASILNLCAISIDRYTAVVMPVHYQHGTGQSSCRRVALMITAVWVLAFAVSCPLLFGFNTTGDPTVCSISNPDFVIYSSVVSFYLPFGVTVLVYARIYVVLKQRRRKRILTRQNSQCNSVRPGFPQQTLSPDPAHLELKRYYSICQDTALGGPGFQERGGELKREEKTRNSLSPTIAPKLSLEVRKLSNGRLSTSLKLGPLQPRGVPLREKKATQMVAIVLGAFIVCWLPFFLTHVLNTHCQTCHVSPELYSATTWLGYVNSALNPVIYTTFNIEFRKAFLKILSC

In one assay the target is D(2) dopamine receptor (Homo sapiens, UniProt P14416). The experiment in a line: Binding affinity to D2R (unknown origin) assessed as inhibition constant.
In another assay the target is D(3) dopamine receptor (Homo sapiens, UniProt P35462). The assay can be described thus: Binding affinity to D3R (unknown origin) assessed as inhibition constant.

For orientation: Ki means the dissociation constant of the complex between target and ligand, obtained from inhibition or displacement. As to `O=c1cc(CNC[C@@H](CO)Cc2ccsc2)[nH]c2ccc(F)cc12`, the Ki on D(2) dopamine receptor and on D(3) dopamine receptor was above 10 µM throughout.
